The results in this text go back to ChEMBL document CHEMBL5442175, “EUbOPEN Chemogenomics Library - PDSP Secondary Binding” (2024).

Experiment [1] addresses Kappa-type opioid receptor (Homo sapiens, UniProt P41145).
The target of experiment [2] is Mu-type opioid receptor (Homo sapiens, UniProt P35372).

pKi: −log10 of the molar value.

A word on the pKi: it is the Ki on a negative log10 scale, so that one unit is a factor of ten. A higher pKi goes with a small Ki. `O=C1NCN(c2ccccc2)C12CCN(CCCOc1ccc(F)cc1)CC2`: the pKi in experiment [1] is 6.04; in experiment [2], 6.81.
